Source: PubChem BioAssay
An excerpt weighted towards active compounds, which were near 2.3% of everything screened.
Mito fusion act: mitochondrial division inhibition or fusion activation. S. cerevisiae fusion-defective mutant growth rescue, CellTiterGlo 48 h. 320,000 compounds, 0.23% hits. AID 485298. Potency, µM (titrated, usually from 46.1 µM), actives largely listed as activators; note: nearly all actives have a fitted effect of over 45% in size
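Temperature-sensitive fusion-defective S. cerevisiae (e.g. fzo1-1, mgm1-5) were grown with compound in YPEG medium (3% ethanol, 3% glycerol) for 48 hours at 37C. Growth rescue was measured as viability by CellTiterGlo luminescence after 10 minutes at ambient.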
miR-21 reporter: miR-21 reporter, rising signal. 340,000 tested, under 10 active. Potency, µM (highest dose often 38.3 µM). HeLa miR-21 FLuc reporter, luciferase, 48 h. AID 2288; active = well fitted rising curve with a large enough effect; inconclusive = small, poorly fitted or top-dose-only effect; inactive = no such curve, though single readings can be large or run the other way;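 further: miR-21 action dims this reporter so a rising signal means less miR-21 action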
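Luminescence from a firefly luciferase reporter carrying a miR-21 binding site downstream, stably expressed under a CMV promoter in HeLa cells that make miR-21 endogenously, reports miRNA modulation after 48 h compound exposure up to approximately 40uM final.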
A549 tox: kills or reduces viability of A549 cells in Nrf2 counter-screen; Potency, µM (series often up to 46 µM), hits mostly inhibitors; 390,000 compounds, 0.16% hits; A549 ARE-Fluc cells, CellTiter-Fluor viability, 18-24 h
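A549 ARE_Fluc cells in 5% FBS OPTI-MEM were exposed to compounds in concentration-response for 18-24 h at 37 deg C. Viability was read by CellTiter-Fluor fluorescence (Ex 405/Em 525) after 30 min, before the luciferase read.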
Nrf2 inh: blocks Nrf2 signaling | AID 504444 | 360,000 compounds, 2.1% hits | Potency, µM (doses to about 46 µM), most hits filed as inhibitors | A549 ARE-Fluc reporter, luciferase luminescence, 18-24 h; note: nearly all actives have a fitted effect of over 60% in size
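A549 ARE_Fluc cells (5000/well, 5% FBS OPTI-MEM) pre-incubated 2 h, then treated with compounds 18-24 h at 37C/5% CO2 in concentration-response. CellTiter-Fluor viability read first; BugLite luciferase luminescence after 15 min at room temperature gives Nrf2 activity.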
Glioma ERSR ind: inducers of ER stress response in human glioma cells | 420,000 compounds, 0.02% hits | U87-MG GRP78 promoter luciferase reporter, 16 h | Potency, µM, most hits filed as activators; note: series mostly up to about 76 µM; nearly all actives have a fitted effect of over 35% in size
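Stably transfected U87-MG human glioma cells carrying a GRP78-based luminescent sensor were seeded at 1000 cells/well, pin-dosed with compounds and incubated 16 h. Luciferase reagent was then added, and end-point luminescence was read after 10 min at room temperature.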
Nrf2 activator: activators of Nrf2 (ARE) signaling | AID 624171 | Potency, µM (doses to about 46.1 µM), most hits filed as activators | 410,000 compounds, 0.31% hits | AREc32 ARE-luciferase reporter (MCF7-derived line), luminescence, 24 h; note: nearly all actives have a fitted effect of over 65% in size
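Quantitative high-throughput format: AREc32 reporter cells, 1000 per well, received compound by pin transfer and were incubated 24 hr at 37 deg C, 5% CO2, before Steady-Glo luminescence detection.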
Each line names hits and unclear results; the compound was inactive in the other large screens. Unless noted, calls come from the whole dose curve; as a rule, active = well fitted curve in the direction sought with a large enough effect; inconclusive = small, poorly fitted or top-dose-only effect, or another doubt; inactive = no such curve, though single readings can be large; an effect the other way counts as inactive or inconclusive.

CCCCCCCC1=Cc2ccccc2C(CC(C)=O)N1C(=O)OC (configuration not stated)	none (no result: Mito fusion act, miR-21 reporter, A549 tox, Nrf2 inh, Nrf2 activator)
COc1cccc(-c2ncn(CCc3ccccc3OC)c2C(C)C)c1	none (no result: Mito fusion act, miR-21 reporter, A549 tox, Nrf2 inh, Glioma ERSR ind)
C/C=C(/C)C(=O)OC1c2c(ccc3ccc(=O)oc23)OC(C)(C)C1OC(=O)/C(C)=C\C (configuration not stated)	A549 tox inconclusive, Nrf2 inh inconclusive
COc1cc(/C=C2\CC/C(=C\c3cc(OC)c(O)c(OC)c3)C2=O)cc(OC)c1O	A549 tox inconclusive, Nrf2 inh 16µM
CN(C)c1oc(/C=C/c2ccccc2)nc1C#N	A549 tox inconclusive, Nrf2 inh inconclusive, Nrf2 activator 7.9µM
Cc1nnc(NC(=O)c2ccc(S(=O)(=O)N(C)Cc3ccccc3)cc2)o1	Nrf2 inh 18µM
COCc1nnc(NC(=O)c2ccc(S(=O)(=O)N(C)Cc3ccccc3)cc2)o1	A549 tox inconclusive, Nrf2 inh inconclusive
CCc1nnc(NC(=O)c2ccc(S(=O)(=O)N(CC(C)C)CC(C)C)cc2)o1	A549 tox inconclusive, Nrf2 inh 16µM
CCN(Cc1ccccc1)S(=O)(=O)c1ccc(C(=O)Nc2nnc(C3CC3)o2)cc1	Nrf2 inh 8.2µM
N#Cc1ccc(C(=O)Nc2cc(C3CC3)nn2-c2ccccc2)cc1	none (no result: miR-21 reporter)
Cc1ccc(N/C(C(Cl)=C(Cl)Cl)=C(/Cl)[N+](=O)[O-])c(C)c1	Glioma ERSR ind inconclusive, Nrf2 activator 22µM (no result: Mito fusion act)
Cc1ccc(NC(=O)CC(=O)Nc2ccc(C)cc2C)c(C)c1	none
O=C(CCO)c1ccc(O)cc1	none
O=C(CCSc1ccc(Br)cc1)c1ccc(O)cc1	Nrf2 inh inconclusive, Nrf2 activator 16µM
O=C(OCc1ccccc1)N1CCC2CC1c1ccc(Cl)cc12 (configuration not stated)	none (no result: Mito fusion act, miR-21 reporter, A549 tox, Nrf2 inh)
Cc1cc(-c2nnc(SCC(=O)Nc3ccccc3)n2C)no1	Nrf2 inh inconclusive
Cc1cc(-c2nnc(SCC(=O)Nc3ccc(C(F)(F)F)cc3)n2C)no1	Nrf2 inh 23µM
CN1CCN(S(=O)(=O)c2ccc(N)cc2)CC1	none
COc1cc2c(c(OC)c1OC)C(=O)C(=Cc1ccccc1)O2	Nrf2 inh inconclusive, Nrf2 activator 16µM (no result: Mito fusion act, miR-21 reporter)
COc1ccccc1C(=O)Oc1ccc2c(c1)O/C(=C\c1ccncc1)C2=O	Nrf2 activator inconclusive
Cc1ccc(NC(=O)C(=O)NCC2CCCO2)cc1C (configuration not stated)	Nrf2 inh inconclusive
Cc1ccc(S(=O)(=O)Nc2ccc(C(=O)N3CCN(c4ccccc4O)CC3)cc2)cc1[N+](=O)[O-]	Mito fusion act inconclusive, Nrf2 inh 15µM (no result: miR-21 reporter)
CCc1ccc(NC(=O)C(C)OC(=O)c2ccc(NS(=O)(=O)c3ccc(C)c([N+](=O)[O-])c3)cc2)cc1 (configuration not stated)	A549 tox inconclusive, Nrf2 inh 21µM
Cc1c(C)c(C)c(C(=O)CCc2cccc(NC(=O)CCC(=O)O)c2)c(C)c1C	none
Cc1ccc(NCCC(=O)c2cccs2)cc1Cl	Nrf2 activator inconclusive
Cc1ccc(NCCC(=O)c2cccs2)cc1C	Nrf2 inh inconclusive, Nrf2 activator 22µM
COc1cc(NC(=O)C2CSC3(C)CCC(=O)N23)c(OC)cc1Cl (configuration not stated)	none (no result: miR-21 reporter)
CCOc1cc(CNc2ccc(N3CCCCC3)cc2)cc(Br)c1OCC(=O)NC(C)(C)C	A549 tox inconclusive, Nrf2 inh 16µM
C=CCOc1ccc(CNc2ccc(NC(=O)CCC)cc2)cc1OCC	none
C=CCOc1c(Br)cc(CNc2ccc(NC(=O)CCC)cc2)cc1OCC	Nrf2 inh 15µM
Cc1cccc(CN2C(=O)c3ccccc3Sc3ccc(C(=O)N4CCCC4)cc32)c1	none (no result: Mito fusion act, Nrf2 inh)
O=C(Nc1ccc(F)cc1)N1CCC(c2nc3c(nnn3Cc3cccc(Cl)c3)c(=O)[nH]2)CC1	A549 tox inconclusive, Nrf2 inh 21µM
Cc1nc2nncn2c(NCc2ccc(F)cc2)c1C	Nrf2 inh 8.2µM (no result: Mito fusion act)
CCN(CC)CCC(=O)Nc1cccc2c1C(=O)c1ccccc1C2=O	miR-21 reporter inconclusive, A549 tox 21µM, Nrf2 inh 16µM, Glioma ERSR ind inconclusive
CCN(CC)CCNC(=O)c1ccc2c(c1NCCO)C(=O)c1ccccc1C2=O	miR-21 reporter inconclusive, A549 tox inconclusive, Nrf2 inh 3.3µM
Cc1ccc(CCNC(=O)c2cn(C)c3ccc(S(=O)(=O)N(C)C4CCCCC4)cc3c2=O)cc1	none (no result: Mito fusion act)
COc1ccccc1NC(=O)Cc1coc2cc(C)ccc12	none
COc1cccc(CN2CCN(CC(=O)NCCc3ccccc3)CC2)c1	A549 tox inconclusive
Cc1cccc2sc(NC(=O)C3CCN(S(=O)(=O)c4cc([N+](=O)[O-])ccc4Cl)CC3)nc12	A549 tox inconclusive, Nrf2 inh 12µM
Cc1nnc(NC(=O)C2CCN(S(=O)(=O)c3cc([N+](=O)[O-])ccc3Cl)CC2)o1	none (no result: miR-21 reporter)
COc1ccc2nc(NC(=O)C3CCN(S(=O)(=O)c4cccc5nsnc45)CC3)sc2c1	miR-21 reporter inconclusive, Nrf2 inh 16µM
O=C(c1ccc(Cl)s1)N1CCN(c2nc3ccccc3s2)CC1	Nrf2 inh 7.3µM
CC1CC(C)CN(C(=O)C(C)N2CCN(S(=O)(=O)c3ccc(C(F)(F)F)cc3)CC2)C1 (configuration not stated)	A549 tox inconclusive, Nrf2 inh 18µM (no result: Mito fusion act, miR-21 reporter)
CCc1ccccc1NC(=O)CSc1nc2ccccc2n1CC(=O)N1CCCC1	none (no result: Nrf2 inh)
Cn1c(CC(=O)NC(C)(C)CO)c(Sc2ccccc2)c2ccccc21	none
CCOC(=O)Cc1c(Sc2ccccc2)c2ccccc2n1C	Nrf2 inh 23µM
CCOc1cccc2sc(N(Cc3cccnc3)C(C)=O)nc12	none (no result: Mito fusion act, Nrf2 inh)
Cc1c(C(=O)NCc2ccccn2)oc2ccc(S(=O)(=O)N3CCC4(CC3)OCCO4)cc12	none
Cc1c(C(=O)NCC2COc3ccccc3O2)oc2ccc(S(=O)(=O)N3CCOCC3)cc12 (configuration not stated)	Nrf2 inh 18µM
O=C(NCC1COc2ccccc2O1)c1cc(S(=O)(=O)N2CCOCC2)c(Cl)cc1Cl (configuration not stated)	Nrf2 inh 23µM (no result: miR-21 reporter)
CCCCN(C)C(=O)c1oc2ccc(S(=O)(=O)N3CCCCCC3)cc2c1C	Nrf2 inh 16µM
Cc1c(C(=O)NCc2ccccc2)oc2ccc(S(=O)(=O)N3CCC4(CC3)OCCO4)cc12	Nrf2 inh 21µM
Cc1c(O)ccc(C(=O)COc2ccc(F)cc2)c1O	none
Cc1cnc(C=NNC(N)=S)c2cccc(N)c12	A549 tox inconclusive, Nrf2 inh 7.3µM (no result: Mito fusion act, miR-21 reporter)
